Results published in publication PMC12432435, “Not only an inhibitor: Trehalose enhances the catalytic action exerted on oxaloacetate by rabbit lactate dehydrogenase” (Protein Science : A Publication of the Protein Society, 2025).

Target: Lactate dehydrogenase from rabbit skeletal muscle (LDH-A) (rabbit) (UniProt P13491)
Experiment: ultrafiltration (100 kDa cutoff); 3 uM tetrameric enzyme, 125 uM beta-NADH, 50 mM Tris-HCl pH 7.5, without or with 4 or 6 mM oxaloacetate; Amicon Ultra 100 kDa cutoff, 15 s at 14,000 x g; protein in retentate and eluate by Bradford; tests dissociation of the tetramer

percent of total enzyme recovered in the retentate (100 kDa cutoff), with 4 mM oxaloacetate: 97%
percent of total enzyme recovered in the retentate (100 kDa cutoff), with 6 mM oxaloacetate: 85%
percent of total enzyme recovered in the retentate (100 kDa cutoff), without oxaloacetate: 98%
Substance: Lactate dehydrogenase from rabbit skeletal muscle (LDH-A) (from UniProt P13491 1-332) (enzyme)
